Target: T1, Broccoli-GFP (shortened dimeric construct, Ndc80 1-556 / Nuf2 1-339 with GFP fused C-terminally to Nuf2) (S. cerevisiae, UniProt P40460 1-556; P33895 1-339)
T1 construct: Ndc80, S. cerevisiae, residues 1-556 (C-terminus removed); Nuf2, S. cerevisiae, residues 1-339 (C-terminus removed); also called His6-Ndc80/Nuf2-GFP; Ndc80/Nuf2; source: E. coli BL21, purified (Ni-charged IMAC resin, size exclusion chromatography); not shown: GFP, C-terminal, kept
T1 sequence (looked up) 1: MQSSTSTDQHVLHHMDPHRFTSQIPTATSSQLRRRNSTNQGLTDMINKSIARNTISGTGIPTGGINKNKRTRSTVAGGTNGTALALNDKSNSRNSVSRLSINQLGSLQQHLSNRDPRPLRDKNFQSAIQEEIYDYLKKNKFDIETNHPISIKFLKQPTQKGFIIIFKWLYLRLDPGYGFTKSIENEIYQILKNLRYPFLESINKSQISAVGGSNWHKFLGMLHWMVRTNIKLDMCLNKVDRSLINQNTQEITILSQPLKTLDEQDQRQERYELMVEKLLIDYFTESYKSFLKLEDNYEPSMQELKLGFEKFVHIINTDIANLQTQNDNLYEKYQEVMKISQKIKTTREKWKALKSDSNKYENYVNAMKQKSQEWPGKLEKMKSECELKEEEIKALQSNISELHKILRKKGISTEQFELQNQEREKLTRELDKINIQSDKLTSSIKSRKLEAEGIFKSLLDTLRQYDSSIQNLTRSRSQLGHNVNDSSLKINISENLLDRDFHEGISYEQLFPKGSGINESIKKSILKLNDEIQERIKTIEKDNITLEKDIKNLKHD
T1 sequence (looked up) 2: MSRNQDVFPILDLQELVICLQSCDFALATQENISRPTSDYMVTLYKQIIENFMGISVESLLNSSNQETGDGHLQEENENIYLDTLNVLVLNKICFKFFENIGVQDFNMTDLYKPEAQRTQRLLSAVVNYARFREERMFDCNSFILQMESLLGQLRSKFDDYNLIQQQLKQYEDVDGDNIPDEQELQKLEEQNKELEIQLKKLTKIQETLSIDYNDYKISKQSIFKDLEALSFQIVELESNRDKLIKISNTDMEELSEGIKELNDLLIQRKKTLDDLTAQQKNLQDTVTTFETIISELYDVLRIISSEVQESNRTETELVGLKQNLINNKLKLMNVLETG
Test: single molecule TIRF microscopy (residence time on microtubules); as a1, with free Spc24/Spc25 dimer (wild type or mutant) added in trans: sixtyfold excess over Broccoli-GFP, tenfold excess over Ndc80-MIND-GFP
Details: both partners purified

B1: free Spc24/Spc25 dimer (complex, S. cerevisiae)
chain 1: MSQKDNLLDNPVEFLKEVRESFDIQQDVDAMKRIRHDLDVIKEESEARISKEHSKVSESNKKLNAERINVAKLEGDLEYTNEESNEFGSKDELVKLLKDLDGLERNIVSLRSELDEKMKLYLKDSEIISTPNGSKIKAKVIEPELEEQSAVTPEANENILKLKLYRSLGVILDLENDQVLINRKNDGNIDILPLDNNLSDFYKTKYIWERLGK
chain 2: MASIDAFSDLERRMDGFQKDVAQVLARQQNHARQQLQQFQAEMRQLHNQHQHLIDELQRLATQRTALQQQIHAAQQATNTTREQWRSYHERESELSRRQSTLAAQSRELDSLLQQRGKECVQLRARWAAQSGNDAAEVALYERLLQLRVLPGASDVHDVRFVFGDDSRCWIEVAMHGDHVIGNSHPALDPKSRATLEHVLTVQGDLAAFLVVARDMLLASL
notes: Spc24, S. cerevisiae; Spc25, S. cerevisiae; also called His6-Spc24/Spc25; wild-type Spc24/Spc25 dimer; source: E. coli BL21, purified (Ni-charged IMAC resin, size exclusion chromatography)
With B1 the “mean residence time of Broccoli-GFP on microtubules with a sixtyfold excess of the binder” value was 3.3 s.
